Test results from ChEMBL document CHEMBL1126018, “Syntheses and 5-HT2 antagonist activity of bicyclic 1,2,4-triazol-3(2H)-one and 1,3,5-triazine-2,4(3H)-dione derivatives” (J Med Chem, 1992).

Protein sequences, listed by entry. Tags and fused reporters are not part of them. Lines headed by an entry give the natural chain unless they say otherwise; changes in a name come on top.
UniProt P30994: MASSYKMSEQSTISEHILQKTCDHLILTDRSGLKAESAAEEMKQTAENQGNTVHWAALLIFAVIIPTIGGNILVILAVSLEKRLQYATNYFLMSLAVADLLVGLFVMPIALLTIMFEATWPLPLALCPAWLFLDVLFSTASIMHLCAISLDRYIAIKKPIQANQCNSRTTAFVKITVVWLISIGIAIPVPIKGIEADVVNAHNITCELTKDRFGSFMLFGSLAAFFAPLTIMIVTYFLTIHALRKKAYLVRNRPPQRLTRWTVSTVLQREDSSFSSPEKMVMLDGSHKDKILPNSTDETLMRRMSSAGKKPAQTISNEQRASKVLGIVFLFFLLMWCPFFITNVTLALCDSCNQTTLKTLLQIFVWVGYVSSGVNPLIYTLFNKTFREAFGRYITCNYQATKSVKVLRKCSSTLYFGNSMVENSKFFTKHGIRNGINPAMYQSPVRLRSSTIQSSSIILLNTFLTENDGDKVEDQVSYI
UniProt P08909: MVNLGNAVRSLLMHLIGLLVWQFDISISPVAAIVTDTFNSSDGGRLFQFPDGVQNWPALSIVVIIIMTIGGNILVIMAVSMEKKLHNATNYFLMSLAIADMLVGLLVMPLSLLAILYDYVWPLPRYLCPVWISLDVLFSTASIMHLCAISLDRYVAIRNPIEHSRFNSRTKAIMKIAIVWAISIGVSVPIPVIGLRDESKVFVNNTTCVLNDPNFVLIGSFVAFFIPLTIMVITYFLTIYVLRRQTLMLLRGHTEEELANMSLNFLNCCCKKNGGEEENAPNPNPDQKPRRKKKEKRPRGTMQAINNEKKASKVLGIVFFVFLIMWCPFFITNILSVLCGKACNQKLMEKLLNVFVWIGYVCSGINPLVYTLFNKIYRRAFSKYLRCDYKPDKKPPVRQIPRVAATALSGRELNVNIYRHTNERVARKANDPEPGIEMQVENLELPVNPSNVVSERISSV
UniProt P14842: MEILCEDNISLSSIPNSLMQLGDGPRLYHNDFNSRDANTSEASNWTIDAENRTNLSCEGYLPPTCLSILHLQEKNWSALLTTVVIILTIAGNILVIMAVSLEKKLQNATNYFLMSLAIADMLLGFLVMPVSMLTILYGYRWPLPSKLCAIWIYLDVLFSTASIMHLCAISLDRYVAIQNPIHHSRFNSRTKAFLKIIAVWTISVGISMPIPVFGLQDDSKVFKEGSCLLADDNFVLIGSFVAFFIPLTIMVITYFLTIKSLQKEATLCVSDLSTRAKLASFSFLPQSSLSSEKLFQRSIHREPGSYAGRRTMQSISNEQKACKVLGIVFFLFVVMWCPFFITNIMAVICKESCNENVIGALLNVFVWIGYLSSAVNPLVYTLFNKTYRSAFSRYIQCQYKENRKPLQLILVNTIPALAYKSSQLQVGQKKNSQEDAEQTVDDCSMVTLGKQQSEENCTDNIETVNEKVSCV

Biological target: Serotonin 2 (5-HT2) receptor (Rattus norvegicus, UniProt P30994+P08909+P14842)
Assay: In vitro antagonistic activity against the contraction induced by 5-HT through 5-hydroxytryptamine 2 receptor in rat thoracic aortic strips
Assay type: functional

Question: With `Cc1nc2sccn2c(=O)c1CCN1CCC(=C(c2ccc(F)cc2)c2ccc(F)cc2)CC1` [RITANSERIN] as the compound, how does the pA2 read?
Answer: 8.8
